For this test, the target named is NA (H1N1,09) (Influenza A virus, UniProt C3W5S3). The test can be described thus: biochemical. As to conditions: for inhibition at 200 µM: 200 μM of each compound, n = 3, means ± standard deviation, read-out: Inhibition rate (%) NA(H1N1,09).

What is called inhibition is the change of the read-out against control, counted positive when it falls. The term IC50 denotes the concentration at which inhibition is half-maximal. Read a high IC50 as weaker potency in that assay. For the compound `C/C(=C\CC[C@@H](C)[C@H]1C[C@H](O)[C@@]2(C)C3=CC[C@H]4C(C)(C)C(=O)CC[C@]4(C)C3=CC[C@]12C)C(=O)O` [Compound 2, Ganoderic acid TR], the inhibition at 200 µM was 87.4 ± 1.6%. This compound returned an IC50 (in vitro NA inhibition assay (n = 3)) of 4.6 ± 1.7 µM. As for `C[C@H](CC[C@H](O)C(C)(C)O)[C@H]1CC[C@@]2(C)C3=CC[C@H]4C(C)(C)C(=O)CC[C@]4(C)C3=CC[C@]12C` [Compound 28, Ganodermanondiol], the inhibition at 200 µM worked out at 53.1 ± 2.5%.

The record behind these values is PMC4549708, “Inhibition of neuraminidase by Ganoderma triterpenoids and implications for neuraminidase inhibitor design” (Scientific Reports, 2015).
